The source of these data is patent US9744150B2, “Suspension containing micronized benzoyl peroxide” (Dow Pharmaceutical Sciences Inc., priority 2009, dated 2017).

The data set in a line: surface tension by Du Noüy ring method, Krüss K20 EasyDyne tensiometer. The format is physicochemical. Particulars: 2.5 % w/w solvent in water, room temperature. The procedure: As used herein, the term “surface tension” refers to the force required to increase the unit area of a surface of a liquid or of an interface between two liquids or between a liquid and a gas, generally stated in units of dynes/cm. Surface tensions described herein are measured by the Du Noüy ring method utilizing an EasyDyne tensiometer model K20 marketed by Krüss USA, Matthews, N.C.
Surface tension of a fluid containing water was determined prior to and after mixing with various concentrations of various water soluble organic solvents in water. The water soluble organic solvents tested were: propylene glycol (Spectrum Chemicals, Gardena, Calif.), ethanol (Alfa Aesar, Ward Hill, Mass.), hexylene glycol (Ruger Chemicals, Linden, N.J.), ethoxydiglycol (Gattefossé USA, Paramus, N.J.), polyethylene glycol 400 (PEG 400) (Croda USA, Edison, N.J.), dimethyl isosorbide (DMI) (Croda, USA, Edison, N.J.) and glycerin (Spectrum Chemicals, Gardena, Calif.) as well as polyethylene glycol 200 NF (PEG 200) (Alfa Aesar, Ward Hill, Mass.), propylene carbonate (Spectrum Chemicals, Gardena Calif.), isopropyl alcohol (Spectrum Chemicals, Gardena Calif.), 1,3-propanediol (Spectrum Chemicals, Gardena Calif.) and polypropylene glycol (PPG-9) (Spectrum Chemicals, Gardena Calif.). […]

For the compound `CC(C)O` [Isopropyl Alcohol, isopropyl alcohol], the Surface tension was found to be 54.2 dynes/cm.
